Source: patent publication US9108854B2, “Biocidal colloidal dispersions of silica particles with silver ions adsorbed thereon” (PREBONA AB, priority 2009, dated 2015)

Assay: Precipitation of silver at alkaline pH (1000 ppm silver, pH 8.65)
Type: physicochemical

Substance: silver nitrate [AgNO3 solution]
- appearance / precipitate formation at alkaline pH: a precipitate was formed immediately
